{
  "source": "paper PMC5759193",
  "about": "“The tankyrase inhibitor G007-LK inhibits small intestine LGR5^+ stem cell proliferation without altering tissue morphology” (Biological Research, 2018)",
  "assay": "Tolerance: body mass, food consumption, clinical observations",
  "key": {"[1]": {"conditions": "enriched diet 100 or 1000 mg G007-LK/kg chow, up to 3 weeks"}},
  "data": [
    {"smiles": "CS(=O)(=O)c1ccc(-c2nnc(/C=C/c3nnc(-c4ccc(C#N)cc4)o3)n2-c2ccccc2Cl)nc1", "note": "[G007-LK]", "values": [
      {"measurement": "body mass development vs control", "setting": "[1]", "value": "not affected"},
      {"measurement": "clinical observations", "setting": "[1]", "value": "no abnormalities"},
      {"measurement": "body mass at experimental endpoint vs vehicle", "setting": "oral gavage daily 9 days, 10 or 50 mg/kg body mass", "value": "did not statistically significant (t test, p > 0.05) affect body mass"}
    ]}
  ]
}
